Reference: US9302986B2, “Substituted 3-haloallylamine inhibitors of ASSAO and uses thereof” (Boehringer Ingelheim International GmbH, priority 2012, dated 2016)

The chains behind the UniProt entries cited, without tags or fusion partners. Residues count along the entry.
UniProt P19801, 20-751: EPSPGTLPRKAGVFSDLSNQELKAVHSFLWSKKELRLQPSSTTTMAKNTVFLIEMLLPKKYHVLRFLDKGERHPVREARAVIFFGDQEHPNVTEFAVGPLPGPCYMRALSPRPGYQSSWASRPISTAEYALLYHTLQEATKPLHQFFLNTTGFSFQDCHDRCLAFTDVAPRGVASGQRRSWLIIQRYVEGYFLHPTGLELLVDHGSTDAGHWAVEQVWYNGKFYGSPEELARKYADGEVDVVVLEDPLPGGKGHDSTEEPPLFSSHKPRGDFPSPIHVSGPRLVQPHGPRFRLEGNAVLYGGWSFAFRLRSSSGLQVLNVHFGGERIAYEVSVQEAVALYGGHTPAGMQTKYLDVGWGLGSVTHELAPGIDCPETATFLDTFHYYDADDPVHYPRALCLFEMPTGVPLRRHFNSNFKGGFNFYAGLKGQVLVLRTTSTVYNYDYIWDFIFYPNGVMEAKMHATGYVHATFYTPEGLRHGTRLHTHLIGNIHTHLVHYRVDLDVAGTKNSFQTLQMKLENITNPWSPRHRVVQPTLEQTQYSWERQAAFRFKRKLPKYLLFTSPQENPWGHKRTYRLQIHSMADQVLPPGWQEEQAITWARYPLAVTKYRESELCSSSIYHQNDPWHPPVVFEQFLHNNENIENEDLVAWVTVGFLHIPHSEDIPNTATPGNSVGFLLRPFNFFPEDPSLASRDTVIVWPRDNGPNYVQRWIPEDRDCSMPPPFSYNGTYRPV

Molecular target: Recombinant human DAO (Homo sapiens (Human), UniProt P19801)
Assay: Inhibition of human recombinant diamine oxidase
Format: biochemical
Conditions: putrescine 200 μM
Method: The inhibitory effects of all the compounds of Formula I were tested against human recombinant SSAO/VAP-1 using the coupled colorimetric method as described for monoamine oxidase, copper-containing amine oxidases and related enzymes (Holt A. and Palcic M., A peroxidise-coupled continuous absorbance plate-reader assay for flavin monoamine oxidases, copper-containing amine oxidases and related enzymes. Nat. Protoc. 2006, 1, 2498-2505). Briefly, a cloned cDNA template corresponding to residues 34-763 of human SSAO/VAP-1, and incorporating a mouse Ig kappa (κ) signal sequence, N-terminal Flag epitope tag and tobacco etch virus (TEV) cleavage site, was assembled in a mammalian expression vector (pLO-CMV) by Geneart AG. This vector containing human SSAO/VAP-1 residues was transfected into CHO-K1 glycosylation mutant cell line, Lec 8. A clone stably expressing human SSAO/VAP-1 was isolated and cultured in large scale. Active human SSAO/VAP-1 was purified and recovered using immunoaffinity chromatography. This was used as source for SSAO/VAP-1 activity. A high-throughput colorimetric assay was developed using either 96 or 384 well format.
Three human genes are found to encode for copper-containing amine oxidases. Diamine oxidase (DAO) is one of the enzymes produced by the AOC1 gene, named for its substrate preference for diamines. […]

`CC(C)(C)NC(=O)c1ccc(OC/C(=C\F)CN)cc1` [Compound 1, (Z)-4-(2-(Aminomethyl)-3-fluoroallyloxy)-N-tert-butylbenzamide] gave an IC50 of less than 1000 nM.
